Experimental findings from patent publication US4465692A (Nelson Research & Development Company, priority 1982, dated 1984) are described below.

Chains of the proteins cited; added tags and fusions are not shown.
UniProt P61169, whole entry: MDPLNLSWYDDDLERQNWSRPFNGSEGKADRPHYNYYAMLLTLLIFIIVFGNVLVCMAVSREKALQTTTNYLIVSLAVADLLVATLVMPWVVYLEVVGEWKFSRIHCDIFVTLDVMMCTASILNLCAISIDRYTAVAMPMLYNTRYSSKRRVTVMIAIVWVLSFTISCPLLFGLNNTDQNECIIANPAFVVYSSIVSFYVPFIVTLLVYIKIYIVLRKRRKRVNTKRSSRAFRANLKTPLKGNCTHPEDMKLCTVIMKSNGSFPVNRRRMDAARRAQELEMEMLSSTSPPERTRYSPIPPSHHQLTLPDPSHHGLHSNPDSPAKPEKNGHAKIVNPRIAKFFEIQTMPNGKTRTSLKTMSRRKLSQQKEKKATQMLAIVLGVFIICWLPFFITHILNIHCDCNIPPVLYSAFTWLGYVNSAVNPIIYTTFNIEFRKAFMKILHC

One experiment has as its target dopamine receptor (Rattus norvegicus, UniProt P61169). Put plainly: biochemical.
A further experiment has as its target D-2 receptor (Rattus norvegicus, UniProt P61169). Put plainly: biochemical.

On to `CN1CCc2cccc3c2[C@H]1Cc1ccc(O)c(O)c1-3` [Apomorphine, reference compound], for which the figures for the IC50 on dopamine receptor and at D-2 receptor were 57 nM and 1500 nM, respectively.
